This note sets out measurements from ChEMBL document CHEMBL6087423, “Grafting a chromophore on AMD070 analogues for CXCR4 bioimaging: Chemical synthesis and in vitro assessment of the inhibition properties of the CXCR4 receptor” (Bioorg Med Chem Lett, 2025).

Chains of the proteins cited; added tags and fusions are not shown.
UniProt P61073, whole entry: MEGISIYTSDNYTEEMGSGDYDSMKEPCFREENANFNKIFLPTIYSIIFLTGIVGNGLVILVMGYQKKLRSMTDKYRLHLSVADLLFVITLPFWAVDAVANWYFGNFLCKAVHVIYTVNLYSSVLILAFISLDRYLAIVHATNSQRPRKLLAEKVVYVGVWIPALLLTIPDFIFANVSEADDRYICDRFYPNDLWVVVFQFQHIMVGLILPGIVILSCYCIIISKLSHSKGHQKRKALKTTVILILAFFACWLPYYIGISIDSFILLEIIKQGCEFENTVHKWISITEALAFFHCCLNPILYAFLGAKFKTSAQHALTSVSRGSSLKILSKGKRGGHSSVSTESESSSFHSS

By IC50 is commonly meant the midpoint of a concentration-inhibition curve.

The assay addresses C-X-C chemokine receptor type 4 (Homo sapiens, UniProt P61073). The assay is described as follows: Inhibition of 12G5-PE binding to CXCR4 in human U266B1 cells assessed as cell viability incubated for 1 hr by DAPI staining based flow cytometric analysis.

With `NCCCCN(Cc1nc2ccccc2[nH]1)C1CCCc2cccnc21` (stereo unspecified), the IC50 turned out to be 57.5 nM.
